These are literature values, as cited in US20250177420A1, “BCL-2 INHIBITORS AND AURORA KINASE INHIBITORS FOR TREATING CANCER” (Genome Research Limited, priority 2022, published 2025).

Protein sequences, listed by entry. Tags and fused reporters are not part of them.
UniProt P10415, whole entry: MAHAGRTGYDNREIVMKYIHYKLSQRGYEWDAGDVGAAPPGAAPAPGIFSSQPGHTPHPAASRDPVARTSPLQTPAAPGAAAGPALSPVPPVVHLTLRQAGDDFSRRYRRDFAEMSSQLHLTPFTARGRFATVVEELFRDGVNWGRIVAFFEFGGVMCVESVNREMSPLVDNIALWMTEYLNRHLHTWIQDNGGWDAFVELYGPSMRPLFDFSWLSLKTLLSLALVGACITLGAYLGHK

pKi: −log10 of the molar value.

This data set has as its target Bcl-2 (Homo sapiens, UniProt P10415). The settings on record: cell-free assays.

By pKi is commonly meant −log10 of the Ki, conventionally taken in molar units. On to `CC1(C)CCC(c2ccc(Cl)cc2)=C(CN2CCN(c3ccc(C(=O)NS(=O)(=O)c4ccc(N[C@H](CCN5CCOCC5)CSc5ccccc5)c(S(=O)(=O)C(F)(F)F)c4)cc3)CC2)C1` [Navitoclax, 4-(4-{[2-(4-chlorophenyl)-5,5-dimethylcyclohex-1-en-1-yl]methyl}piperazin-1-yl)-N-(4-{[(2R)-4-(morpholin-4-yl)-1-(phenylsulfanyl)butan-2-yl]amino}-3-(trifluoromethanesulfonyl)benzene-1-sulfonyl)benzamide], for which the pKi was at least 9.00.
